From patent US7691844B2, “Nonpeptide substituted spirobenzoazepines as vasopressin antagonists” (Ortho-McNeil Pharmaceutical, Inc., priority 2000, dated 2010) come the findings set out here.

Amino acid sequences for entries named in this document (tags omitted).
UniProt P30518, whole entry: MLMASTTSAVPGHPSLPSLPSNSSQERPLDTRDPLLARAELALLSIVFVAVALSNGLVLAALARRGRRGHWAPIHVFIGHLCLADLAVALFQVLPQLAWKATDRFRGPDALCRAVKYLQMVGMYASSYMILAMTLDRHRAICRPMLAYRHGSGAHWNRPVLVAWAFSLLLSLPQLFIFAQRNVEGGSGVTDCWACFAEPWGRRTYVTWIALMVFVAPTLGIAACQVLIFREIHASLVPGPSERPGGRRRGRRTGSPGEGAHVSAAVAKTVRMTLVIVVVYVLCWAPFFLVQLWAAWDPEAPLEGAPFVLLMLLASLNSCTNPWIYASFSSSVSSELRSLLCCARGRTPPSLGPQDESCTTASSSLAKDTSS
UniProt P37288, whole entry: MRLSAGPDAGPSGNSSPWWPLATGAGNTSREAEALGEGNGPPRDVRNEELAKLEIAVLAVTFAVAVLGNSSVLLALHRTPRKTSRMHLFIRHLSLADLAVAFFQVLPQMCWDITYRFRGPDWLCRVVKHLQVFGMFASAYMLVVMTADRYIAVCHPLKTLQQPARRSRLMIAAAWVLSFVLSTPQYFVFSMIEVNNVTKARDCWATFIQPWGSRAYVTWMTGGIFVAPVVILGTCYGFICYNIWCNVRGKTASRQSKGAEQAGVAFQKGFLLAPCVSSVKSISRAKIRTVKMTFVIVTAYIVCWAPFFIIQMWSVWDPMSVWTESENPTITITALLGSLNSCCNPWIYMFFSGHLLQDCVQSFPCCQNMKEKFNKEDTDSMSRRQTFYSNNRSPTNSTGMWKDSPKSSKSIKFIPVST

In one assay the target is human V2 receptor (Homo sapiens, UniProt P30518). Put plainly: In-vitro receptor binding assay (3H-arginine-8-vasopressin), V2. As to conditions: read-out: Receptor Binding V2 (IC50 in μM). The method, then:
(§1) (A) In-Vitro Binding Assay […] The reaction plates are allowed to sit at room temperature for one hour. The samples are filtered through Unifilter GF/C plates (presoaked in 0.3 polyethyleneimine). The plates are washed 5 times with cold physiological saline containing 0.05% Tween 20. After drying, the bottom of the filter plates are sealed and 0.025 ml of Microscint-20 is added to each filter. The top of the plate is sealed, and the plate is counted. Non-specific binding is determined by the addition of 1.25 μM […]-vasopressin in those wells. % Inh. is calculated as follows: […]

The next assay deals with V1a (Homo sapiens, UniProt P37288). The assay can be described thus: In-vitro receptor binding assay (3H-arginine-8-vasopressin), V1a. Particulars: read-out: Receptor Binding V1a (IC50 in μM). The method, then: as §1

In general, IC50 refers to the point on the concentration scale where inhibition reaches its midpoint.

Take `COc1cc(NC(=O)c2cc(F)ccc2C)ccc1C(=O)N1CCC2(C=C(C(=O)NCCCN3CCCC3)CC2)Cc2ccccc21` (centres unmarked): the results for the IC50 on human V2 receptor and on V1a were 0.062 µM and 0.011 µM, respectively.
